Only some compounds are listed: those with a hit (about 1.6% of all), similar ones and a draw of the others.
CAL PDZ FP-1 = untagged CAL PDZ binding inhibitors, primary screen, biochemical, fluorescence polarization, HTS; inhibition, % at 24.9 µM; AID 602252, 2012; purified CAL PDZ, TMR-peptide fluorescence polarization, 1 h; actives 0.92% (n = 300,000); Golgi-associated PDZ and coiled-coil motif-containing protein (Homo sapiens), Q9HD26;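 active = mean inhibition of at least 30% with at least half of replicates also reaching 30%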;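 note: 0% = DMSO neutral control and 100% = excess unlabeled competitor peptide PRC23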
Yeast UUG start = modulators of start codon recognition fidelity in yeast; S. cerevisiae UUG-firefly luciferase reporter, luminescence/redox ratio; activity score, % at 18.7 µM; 0.13% of 350,000 active;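 active = replicate mean at a twofold rise or more, about +100% in these data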;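 also: firefly luciferase made from a UUG start codon reports start codon fidelity; reporter light over untreated wells divided by growth signal over untreated wells; some hits fall short of that in this replicate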
PglD DTNB = C. jejuni PglD acetyltransferase inhibitors, primary screen, biochemical, DTNB colorimetric, single point; purified PglD enzyme, DTNB colorimetric CoA detection; inhibition, % at 12.5 µM; actives 0.098% (n = 360,000); AID 602405, 2012; in the data active = inhibition above about 16%, passing the limit was not always enough
Vif inh = HIV Vif self-association inhibitors, primary screen, imaging, HEK293T, single point; HEK293T cells, Vif self-association by quenched fluorescence, 24 h; inhibition, % at 7.49 µM; actives 0.35% (n = 340,000); AID 602346, 2012; in the data active = inhibition above about 50%, passing the limit was not always enough
CAL PDZ FP-2 = CAL PDZ peptide-binding inhibitors, primary screen, biochemical, fluorescence polarization, Cer-tagged CAL PDZ, HTS; Golgi-associated PDZ and coiled-coil motif-containing protein (Homo sapiens), Q9HD26; purified CAL PDZ, TMR-peptide fluorescence polarization, 1 h; inhibition, % at 20 µM; actives 0.02% (n = 330,000);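 active = highest replicate inhibition of at least 40%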;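 note: plate controls were DMSO neutral control wells for no effect and unlabeled competitor peptide control wells for full effect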
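Test system: purified CerCALP PDZ construct; Compound dosing: one concentration, 20 µM compound; Also added: TMR-labelled reporter peptide T*-PRC34 bound in PDZ groove; Read-out: inhibition from polarization loss; Controls: unlabelled peptide and DMSO controls; Signal: FP readout, S and P plane fluorescence; Incubation: 1 h at RT.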
ARNT TACC3 PPI = disruptors of ARNT/TACC3 protein interaction, primary screen, biochemical, AlphaScreen, single concentration; AID 623870, 2012; actives 0.66% (n = 390,000); AlphaScreen His-ARNT PAS-B/GST-TACC3 binding, luminescence; TACC3 fragment carries E629A point mutation; inhibition, % at 9.99 µM;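 active = mean inhibition of replicates at least 50% and at least half of replicates each reaching 50%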;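 note: 0% = complete ARNT plus TACC3 wells and 100% = ARNT alone without TACC3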
An asterisk follows results filed as active; x = no result.

SMILES | CAL PDZ FP-1 | Yeast UUG start | PglD DTNB | Vif inh | CAL PDZ FP-2 | ARNT TACC3 PPI
COc1c(O)c(O)c2oc(-c3ccccc3)cc(=O)c2c1OC | 4.2 | 7.9 | 3.2 | -2.6 | 1.3 | -4.2
COc1cc(-c2cc(=O)c3c(O)c(OC)c(OC)c(O)c3o2)ccc1O | -0.7 | -6.2 | -0.8 | 62.4* | -1.0 | 0.7
COCC(=O)N(C)C[C@H]1Oc2cc(-c3ccccc3F)ccc2S(=O)(=O)N([C@H](C)CO)C[C@H]1C | x | x | -7.0 | x | x | -12.3
Cc1ccc(S(=O)(=O)N2CCN(C(=O)COC(=O)/C=C/c3ccc([N+](=O)[O-])cc3)CC2)c(C)c1 | -6.3 | -7.0 | -6.9 | -2.8 | -0.5 | -8.9
C=CCOc1ccc(/C=C/C(=O)OCC(=O)N2CCN(S(=O)(=O)c3ccc(C)cc3C)CC2)cc1 | 47.1* | -9.5 | 3.2 | 0.1 | -0.3 | x
CC(=O)N(C)C[C@H]1Oc2ncc(-c3cncnc3)cc2C(=O)N([C@@H](C)CO)C[C@@H]1C | x | -14.4 | -1.3 | x | x | 9.9
COc1cc(-c2nnc(NC(=O)CS(=O)(=O)c3ccc(C)cc3)o2)cc(OC)c1OC | -0.7 | -18.1 | 2.0 | -2.3 | -3.1 | 45.3*
COc1cc(-c2nnc(NC(=O)CS(=O)(=O)c3ccc(F)cc3)o2)cc(OC)c1OC | -2.2 | -25.8 | -0.8 | -3.5 | -2.1 | 53.7*
COc1ccc(CN(C)C[C@@H]2Oc3c(NS(=O)(=O)c4cccs4)cccc3C(=O)N([C@@H](C)CO)C[C@@H]2C)cc1 | x | 5.3 | -0.3 | x | x | -6.8
O=C(CNC(=S)N(Cc1ccccc1)Cc1cccnc1)NCc1ccccc1 | -2.3 | x | x | 0.3 | -2.6 | -1.3
COC(CNC(=O)CNC(=S)N(Cc1ccccc1)Cc1cccnc1)OC | 84.3* | -9.7 | 7.4 | 4.3 | 1.2 | -2.8
COc1ccc(Nc2nnc(-c3ccc(C(N)=O)cc3)c3ccccc23)cc1 | x | -19.8 | 5.6 | -10.9 | 0.5 | 50.9*
NC(=O)c1ccc(Nc2nnc(-c3ccc(O)cc3)c3ccccc23)cc1 | -5.3 | x | x | 0.7 | -3.5 | 22.4
NC(CCc1ccccc1)c1csc(Nc2ccc(C(=O)c3ccccc3)cc2)n1 (stereo not drawn) | x | 17.4 | -1.4 | 56.8* | x | x
O=C(CCC(=O)c1ccccc1)Nc1ccccc1OC(F)F | 32.5* | -9.9 | -1.9 | 2.5 | -1.2 | -6.9
O=C(Nc1ccccc1OC(F)F)c1ccccc1 | x | 1.5 | 1.4 | -7.6 | -1.4 | -4.9
CCCC(=O)Nc1ccc2c(c1)C(=O)N(C)C[C@H](OC)[C@@H](C)CN(C)[C@H](C)CO2 | x | 0.2 | 0.2 | x | x | -0.3
Cc1c(C)c2c(OCC(=O)N3CCC[C@H]3C(=O)O)cc3c(c2oc1=O)CCC(C)(C)O3 | 0.4 | 9.1 | 6.2 | 5.9 | -1.4 | 128.4*
O=C(CSc1nnc(CNC(=O)c2cccs2)o1)Nc1ccc(Br)cc1 | 43.6* | -14.5 | 2.6 | 5.8 | -1.9 | 4.8
C[C@H]1CCCCO[C@@H](CN(C)S(=O)(=O)c2cccs2)[C@@H](C)CN([C@@H](C)CO)C(=O)c2cc(NS(=O)(=O)c3ccccc3)ccc2O1 | x | 12.8 | 3.7 | x | x | 1.9
COc1ccc(OC)c(S(=O)(=O)N2CCCC(C(=O)NCc3cccnc3)C2)c1 (stereo not drawn) | -4.0 | -3.7 | 2.2 | 59.6* | -1.7 | -0.9
CO[C@H]1CN(C)C(=O)c2cc(NC(=O)C3CCCC3)ccc2OC[C@H](C)N(C(C)=O)C[C@@H]1C | x | x | 3.2 | x | x | -7.6
CCOc1ccc(C(=O)NCC(=O)Nc2ccc3c(c2)OCO3)cc1OCC | 0.2 | x | x | 2.7 | -0.1 | x
CSc1cccc(NC(=O)CNC(=O)c2ccc3c(c2)OCO3)c1 | 61.1* | -1.1 | 3.3 | -2.6 | -1.1 | -0.7
O=C(CCc1c[nH]c2ccccc12)NCCc1ccccc1 | -3.0 | -11.5 | 0.6 | 25.5 | -0.9 | -5.5
Next part:
SMILES | CAL PDZ FP-1 | Yeast UUG start | PglD DTNB | Vif inh | CAL PDZ FP-2 | ARNT TACC3 PPI
O=C(CCc1c[nH]c2ccccc12)NCCc1ccc(Cl)cc1 | 36.5* | -19.9 | -1.9 | -4.4 | -1.5 | 2.2
CC(C)c1ccc(N(CC(=O)N2CCOCC2)S(C)(=O)=O)cc1 | 86.0* | -23.0 | 2.7 | -10.2 | -6.6 | -1.1
CC(C)NC(=O)N(C)C[C@H]1OCCCC[C@H](C)Oc2ccc(NC(=O)C3CCCCC3)cc2C(=O)N([C@H](C)CO)C[C@H]1C | x | x | -2.3 | x | x | 4.3
CNC[C@@H]1Oc2ccc(NC(=O)c3ccncc3)cc2CC(=O)N([C@H](C)CO)C[C@@H]1C | x | 0.3 | -1.8 | x | x | -2.2
COc1ccc(Cl)cc1NCCC(O)c1ccc(F)cc1 (stereo not drawn) | -4.6 | -14.3 | 1.9 | 0.5 | 0.4 | 16.4
COc1ccc(NCCC(O)c2ccc(Cl)cc2)cc1 (stereo not drawn) | 35.0* | 1.0 | 2.1 | 16.2 | x | 15.7
COc1cc(/C=N/Nc2nncn2/N=C/c2ccc(O)c(OC)c2)ccc1O | 1.9 | x | x | 0.6 | 1.3 | 50.6*
COc1ccc(OC)c(/C=N/Nc2nncn2/N=C/c2cc(OC)ccc2OC)c1 | -0.8 | -22.0 | -0.2 | -18.3 | 0.1 | 2.5
C[C@H](CO)N1C[C@H](C)[C@H](CN(C)Cc2ccccc2)OCCCC[C@H](C)Oc2ccc(NC(=O)C3CCCCC3)cc2C1=O | x | 6.7 | 0.0 | x | x | -0.7
COc1cccc(-n2c(Cc3cc(=O)[nH]c(=O)[nH]3)nnc2SCC(=O)N2CCC(C)CC2)c1 | 50.1* | 4.4 | -1.2 | 4.7 | -0.2 | -1.8
COc1ccc(-n2c(Cc3cc(=O)[nH]c(=O)[nH]3)nnc2SCC(=O)N2CCC(C)CC2)cc1 | 1.6 | 6.9 | 6.6 | 13.6 | -0.1 | x
COCCCNC(=S)N/N=C/c1ccc(OC)c(Br)c1 | 54.1* | x | x | 23.1 | -0.9 | 4.5
Cc1sc2nc(SCC(=O)Nc3cccc(S(N)(=O)=O)c3)[nH]c(=O)c2c1C | -4.5 | -4.1 | -0.9 | -6.2 | -1.8 | -7.2
Cc1sc2nc(SCC(=O)Nc3ccc(S(N)(=O)=O)cc3)[nH]c(=O)c2c1C | 43.5* | -4.9 | 5.7 | x | 0.0 | -6.3
O=C(N[C@@H]1CC[C@@H](CCn2cc(-c3ccccn3)nn2)O[C@H]1CO)c1ccncc1 | x | -17.5 | -1.1 | x | x | 61.9*
O=S(=O)(N[C@@H]1CC[C@H](CCn2cc(-c3ccccn3)nn2)O[C@@H]1CO)c1cccc(F)c1 | x | 3.3 | 4.6 | x | x | 91.5*
COc1ccc(NC(=O)N[C@@H]2CC[C@@H](CCn3cc(-c4ccccn4)nn3)O[C@@H]2CO)cc1 | x | -25.2 | -2.8 | x | x | 47.8*

In the list so far, these contain a thiophene ring, fused or not.
SMILES | CAL PDZ FP-1 | Yeast UUG start | PglD DTNB | Vif inh | CAL PDZ FP-2 | ARNT TACC3 PPI
COc1ccc(CN(C)C[C@@H]2Oc3c(NS(=O)(=O)c4cccs4)cccc3C(=O)N([C@@H](C)CO)C[C@@H]2C)cc1 | x | 5.3 | -0.3 | x | x | -6.8
O=C(CSc1nnc(CNC(=O)c2cccs2)o1)Nc1ccc(Br)cc1 | 43.6* | -14.5 | 2.6 | 5.8 | -1.9 | 4.8
C[C@H]1CCCCO[C@@H](CN(C)S(=O)(=O)c2cccs2)[C@@H](C)CN([C@@H](C)CO)C(=O)c2cc(NS(=O)(=O)c3ccccc3)ccc2O1 | x | 12.8 | 3.7 | x | x | 1.9
Cc1sc2nc(SCC(=O)Nc3cccc(S(N)(=O)=O)c3)[nH]c(=O)c2c1C | -4.5 | -4.1 | -0.9 | -6.2 | -1.8 | -7.2
Cc1sc2nc(SCC(=O)Nc3ccc(S(N)(=O)=O)cc3)[nH]c(=O)c2c1C | 43.5* | -4.9 | 5.7 | x | 0.0 | -6.3

High-throughput results: PubChem, Broad Institute
